# Assay results taken from patent US4098706A, “Lubricating agents for thermoplastic materials and process for preparing the same” (Sapchim-Fournier-Cimag, priority 1975, dated 1978).
# Experiments:
# [1] = Static thermostability of the lubricated resin, oven 185° C; conditions: study E(a), 0.5 part
# [2] = Tendency for bubbles to appear in the polyvinyl chlorides containing the lubricating agents; assay type: physicochemical
substance,measurement,setting,value
glyceryl trimontanate,"Static thermostability, abrupt decomposition after",[1],60 min
same,Observations (release of gas),[2],Release increasing
same,Temperature at which bubbles appear,[2],150 °C
